Results taken from publication PMC11365140 (Cell & Bioscience, 2024).

Chains of the proteins cited; added tags and fusions are not shown. Residues count along the entry.
UniProt P43220, 24-463: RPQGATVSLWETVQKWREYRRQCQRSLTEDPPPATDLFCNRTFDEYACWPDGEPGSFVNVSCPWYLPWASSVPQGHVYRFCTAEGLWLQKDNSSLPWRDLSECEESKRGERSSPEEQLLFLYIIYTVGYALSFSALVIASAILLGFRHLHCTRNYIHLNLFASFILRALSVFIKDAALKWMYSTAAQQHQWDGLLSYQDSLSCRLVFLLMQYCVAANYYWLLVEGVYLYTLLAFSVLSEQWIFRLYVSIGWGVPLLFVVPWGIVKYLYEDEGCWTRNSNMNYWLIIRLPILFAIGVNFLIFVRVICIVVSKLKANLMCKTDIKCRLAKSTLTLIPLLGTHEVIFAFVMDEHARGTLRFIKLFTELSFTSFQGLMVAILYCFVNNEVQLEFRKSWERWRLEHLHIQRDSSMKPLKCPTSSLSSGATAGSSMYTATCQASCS

Target: GLP-1R (GLP-1 receptor) stably expressed in HEK293 cells (UniProt P43220)

For glucagon (ligand), the cAMP accumulation in HEK293 cells stably expressing GLP-1R, dose-response (EC50) was 1.35 nM.
